## Antibody variant affinities, Ab-14 light chain, assay B

Values reported by Li et al. 2023, doi:10.1038/s41467-023-39022-2 (FLAb copy).

All variants were tested on one target, the spike HR2 peptide PDVDLGDISGINAS (SARS-CoV-2).

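The starting antibody came from a phage panning campaign against this peptide. This is the validation round: designs drawn from the data on random variants, tested in the same kind of assay. Group labels follow the data file (Ctrl: baseline library sampled from a position-specific scoring matrix, with some repeated check sequences; En: ensemble of fine-tuned language models; GP: Gaussian process model; HC: hill climbing; Gen: genetic algorithm; Gibbs: Gibbs sampling; a sequence that several methods proposed may carry one label only). AlphaSeq pools MATa yeast showing the antibodies with MATalpha yeast showing the peptide. After mating in shaken culture at 30 °C for 16 h, diploids were selected and their barcode pairs sequenced. The ratio of observed to expected reads was calibrated, replicate by replicate, on BCL2-family standards whose Kd was known from biolayer interferometry. The assay was run in six technical replicates.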

Parent: Ab-14, a human scFv built as VH, the linker GGGGSGGGGSGGGGS, VL. Only the CDRs of the light chain vary.
VH: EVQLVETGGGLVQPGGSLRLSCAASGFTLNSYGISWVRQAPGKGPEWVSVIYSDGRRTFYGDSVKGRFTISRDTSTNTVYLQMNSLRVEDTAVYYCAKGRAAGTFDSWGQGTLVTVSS
VL: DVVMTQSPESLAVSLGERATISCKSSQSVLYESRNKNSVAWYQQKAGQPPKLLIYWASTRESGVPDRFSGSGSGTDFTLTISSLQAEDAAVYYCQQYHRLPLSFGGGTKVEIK

Each variant is given by its three light chain CDRs, as the data file delimits them; those of the parent are KSSQSVLYESRNKNSVA, WASTRES, QQYHRLPLS. Values are log10 of the apparent Kd in nM; lower means stronger binding. Averages over replicates are reported, and they cover detected replicates only. A pair that was not seen in any replicate is written "not detected"; this usually means weak binding, but a binder can also be missed. In the paper, a design with two or fewer of six values counts as a poor binder. Background: pairings of all light chain designs with three empty control strains gave a value in 4% of cases (median 2.64, 5th percentile 1.59). Values in that range, when seen in few replicates, are hard to tell from nonspecific mating. A sequence measured in both rounds can read differently, since the two assays cover different ranges. The parent sequence was in this pool as ten entries: three were never detected, three once, and four in most replicates, with averages from 0.34 to 2.37.

| CDR-L1 | CDR-L2 | CDR-L3 | group | mean, log10 nM | detected |
|---|---|---|---|---|---|
| KSSWSVLTESRNKNSVA | WASTRES | QQYHSLPLS | Ctrl | 2.02 | 2 of 6 |
| KASQSVLGESRNKNNVA | WASTRES | QQYHRLPLS | Ctrl | 1.40 | 6 of 6 |
| KLGSSTRFESSNKASIA | DNSTREN | QQYHRLPLS | En_HC | 1.33 | 5 of 6 |
| MVTQMAMSGMTNKRSVA | NAETRED | QQYHRLPLI | En_Gen | 1.27 | 1 of 6 |
| IISQSMLFESATHNSIA | QTSTREE | QQYHHLPLS | En_HC | 1.39 | 6 of 6 |
| KLSWSVLYEVRNKNSVA | DASTRES | QQYHILPLS | Ctrl | 0.30 | 6 of 6 |
| KFSQSVLYESRMKNSVA | DASTRCS | QQYHRLPLS | GP_HC | 0.11 | 6 of 6 |
| KLSQGDWYQSRMDNSVA | NASTRES | QQYHRLPLS | GP_Gibbs | 0.38 | 6 of 6 |
| KVSISWLMESRNKNQVA | HASTRMS | QQYHRLPLS | GP_Gibbs | 1.71 | 6 of 6 |
| MVTLQLRNGHELQNPIA | EASHRAA | QQYAHLPLG | En_Gibbs | 0.65 | 6 of 6 |
| QLQWYNTYATYSASNIA | DGAQRLN | QQYMRLPLM | En_Gibbs | 1.61 | 5 of 6 |
| KSLQEQEYESRNKNSVA | HASTRED | QQYHRLPLS | GP_HC | 0.03 | 6 of 6 |
| KLSQSVLYEERNKNNVA | NASTRMS | QQYHRLPLS | GP_Gen | -0.57 | 6 of 6 |
| IVNGVLDHLSKNTNNVA | ETSTRES | QQYDRLPLQ | En_Gen | 0.67 | 6 of 6 |
| KFDQSWLYESRNKNSVA | HASQRCS | QQYHRLPLS | GP_Gibbs | 0.36 | 6 of 6 |
| IITQSVMQESKNKRNVA | NTSEREP | QQYDRLPLI | En_HC | 1.74 | 6 of 6 |
| KLWAYLQGLERNMQNVA | DGIYRST | QQYDRLPLS | En_Gibbs | 0.49 | 6 of 6 |
| KLSSSIRGESRNKNSVA | QAQTRES | QQYHRLPLS | Ctrl | 0.42 | 6 of 6 |
| KLSQSELYESRNKNSVA | NASQRES | QDYHRLPLS | GP_Gen | -0.06 | 6 of 6 |
| TISQMTSWMSNKKNNVA | EVTTREA | QQYDRLPLM | En_Gen | 2.82 | 3 of 6 |
| KLQQSELYESRMKNSVA | NASQRES | QQYHRLPLS | GP_Gen | 0.57 | 6 of 6 |
| KVSQSVLYESGTKNSVA | NASNRES | QQYHRLPLS | GP_HC | -0.19 | 6 of 6 |
| KSSQSVLQEARNKNSVA | WASTRES | QQYHRLWLS | Ctrl | 2.44 | 5 of 6 |
| MMSQVHGLGQRHRNNVA | QTSTREP | QQYDRLPLI | En_Gen | 1.56 | 6 of 6 |
| KLYQSVGTMSHNKDSIA | DMERRED | QQYHRLPLS | En_HC | 0.79 | 6 of 6 |
| KSTQSVLGESRNKNSVA | YASTRIS | QQYHRLPLS | Ctrl | 1.68 | 6 of 6 |
| KLDFSVLEESRNPNSVA | NASTRES | QDYHRLPLS | GP_Gibbs | 0.10 | 6 of 6 |
| KFSQSVLGDSRNANSVA | GASTRES | QQYHRLPLS | Ctrl | 0.49 | 6 of 6 |
| MMSQMFEGLSTSKNPVA | QVTTREE | QQYHRLPLS | En_HC | 2.10 | 5 of 6 |
| KLQQSVQYESRNQNAVA | QASQRES | QQYHRLPLS | GP_Gibbs | 0.00 | 6 of 6 |
| KLEQSELYESRNKQSVA | NASERES | QQYHRLPLS | GP_Gibbs | -0.04 | 6 of 6 |
| QFSNTNMQGHAMEHNVA | EATYAEE | QQYARLPLQ | En_Gibbs | 0.63 | 6 of 6 |
| KLSPSVEYESRLKNSVA | NASTRLE | QQYHRLPLS | GP_Gibbs | 0.41 | 6 of 6 |
| KVEQGVDDESRNDNSVA | WASTREG | QQYHRLPLS | GP_Gibbs | 1.97 | 6 of 6 |
| KSSQSVLYESRNKNSVA | AASTRES | QQVHRLPLS | Ctrl | 2.09 | 3 of 6 |
| KLSQSVLYESRNKNSVA | QASTRED | QQYHRLPLS | GP_Gen | -0.38 | 6 of 6 |
| HISQSVTMTSRNKNSVA | ENSTREA | QQYDRLPLS | En_HC | 1.73 | 6 of 6 |
| KMSQSDLMEHRNKNSVA | DASLRES | QQYHRLPLS | GP_HC | -0.34 | 6 of 6 |
| VMSQSVPYESLNKNSVA | EASTRES | QQYHRLPLS | Ctrl | 0.40 | 6 of 6 |
| HSSPSVEYESRNKNNVA | NASTRES | QQYHRLPLS | GP_HC | -0.04 | 6 of 6 |
| KQSQLGLYGSRNKNSVA | EASTRES | QQYHRLPLS | GP_Gibbs | 1.50 | 6 of 6 |
| KSSQSVLYESTNKNSVA | AASTRES | QQYHRLPLS | Ctrl | 0.44 | 6 of 6 |
| KIEGSMLYEDRNKNSVA | NASQREV | QAYHRLPLS | GP_Gibbs | -0.10 | 6 of 6 |
| ILSQSVLMGMHLKNSVA | QATMRFD | QQYHRLPLM | En_HC | not detected | 0 of 6 |
| KLREVQHVEMKQKNNVA | DNSTRES | QDYYRLPLS | En_HC | 0.57 | 6 of 6 |
| KLSQSVLYESRNENSVA | WASTRES | QQYKRYPLS | Ctrl | 3.63 | 2 of 6 |
| MISQLINMGSFAINSVA | QASIRNE | QQYDRLPLM | En_Gen | -0.40 | 6 of 6 |
| KIAQMVNFESTHINAVA | QMSTREE | QQYFRLPLS | En_HC | 0.40 | 6 of 6 |
| KLSYITGTEKVHGNNVA | EMETRER | QQYNRLPLA | En_Gen | 1.52 | 6 of 6 |
| KLLQSELYESRNKNSVA | HASTRED | QQYHQLPLS | GP_HC | -0.14 | 6 of 6 |
| KLLQTVMNETRNKNNVA | HMTTRED | QQYFRLPLS | En_HC | 0.01 | 6 of 6 |
| MIGQMMGWESNKIHSVA | QANLRVD | QQYDRLPLE | En_Gen | 0.58 | 6 of 6 |